System: C57BL/6 mice
Test: Antagonism in vivo of capsaicin-induced ear vasodilation (laser Doppler)
Conditions: 960 nmol/kg subcutaneously, 15 minutes
Experimental: 4. Antagonism In Vivo of Capsaicin-Induced Ear Vasodilation in C57BL/6 Mice
On the day of experiment, 10 mM stock solutions of antagonists A and A4 in dimethylsulfoxide were diluted in saline vehicle containing a final amount of 0.1% bovine serum albumin and 3.2% dimethylsulfoxide. Capsaicin solutions were constituted at 3.03 mg/ml by dissolving capsaicin powder (at ≥95% purity) in absolute ethanol. Animal studies were conducted within a room maintained at 20 to 21 degrees Celsius.
The antagonists at a dose of 960 nmol/kg (10 ml/kg in saline containing 0.1% BSA and 3.2% dimethylsulfoxide), or saline vehicle (containing 0.1% BSA and 3.2% dimethylsulfoxide) were each administered subcutaneously to C57BL/6 mice at 10 minutes prior to anesthesia. The absolute injection volumes for A and A4 were adjusted such that the final dose administered was 960 nmol/kg. Mice were then anesthetized with a cocktail that consisted of ketamine and xylazine at 100 mg/kg and 10 mg/kg respectively (10 ml/kg), administered subcutaneously. […]
Mean flux values for both ears (control and capsaicin) at each timepoint (per minute) were analysed using MoorLDI Review 6.1 and Graphpad Prism 7 software. […] Area under the curve (AUC) of the normalised profile baseline was measured for each animal, grouped and compared between the different treatment arms. […]

CC(C)C[C@H](NC(=O)CNC(=O)[C@H](C)NC(=O)[C@H](CC(C)C)NC(=O)[C@H](CCCNC(=N)N)NC(=O)[C@H](Cc1c[nH]cn1)NC(=O)[C@@H](NC(=O)[C@@H](N)C(C)C)[C@@H](C)O)C(=O)N[C@@H](CC(C)C)C(=O)N[C@@H](CO)C(=O)N[C@@H](CCCNC(=N)N)C(=O)N[C@@H](CO)C(=O)NCC(=O)NCC(=O)N[C@H](C(=O)N[C@H](C(=O)N[C@@H](CCCCN)C(=O)N[C@@H](CC(N)=O)C(=O)N[C@@H](CC(N)=O)C(=O)N[C@@H](Cc1ccccc1)C(=O)N[C@H](C(=O)N1CCC[C@H]1C(=O)N[C@H](C(=O)N[C@@H](CC(N)=O)C(=O)N[C@H](C(=O)NCC(=O)N[C@@H](CO)C(=O)N[C@@H](CCCCN)C(=O)N[C@@H](C)C(=O)N[C@@H](Cc1ccccc1)C(N)=O)C(C)C)[C@@H](C)O)C(C)C)C(C)C)C(C)C [A, CGRP8-37]
Attenuation of capsaicin-evoked vasodilatory response compared to control, analysed by AUC (FIGS. 5 and 6): significant

— US20200353088A1, “PEPTIDE CONJUGATE CGRP RECEPTOR ANTAGONISTS AND METHODS OF PREPARATION AND USES THEREOF” (Auckland UniServices Limited, priority 2017, published 2020)
